The chains behind the UniProt entries cited, without tags or fusion partners.
UniProt Q9HBH9, whole entry: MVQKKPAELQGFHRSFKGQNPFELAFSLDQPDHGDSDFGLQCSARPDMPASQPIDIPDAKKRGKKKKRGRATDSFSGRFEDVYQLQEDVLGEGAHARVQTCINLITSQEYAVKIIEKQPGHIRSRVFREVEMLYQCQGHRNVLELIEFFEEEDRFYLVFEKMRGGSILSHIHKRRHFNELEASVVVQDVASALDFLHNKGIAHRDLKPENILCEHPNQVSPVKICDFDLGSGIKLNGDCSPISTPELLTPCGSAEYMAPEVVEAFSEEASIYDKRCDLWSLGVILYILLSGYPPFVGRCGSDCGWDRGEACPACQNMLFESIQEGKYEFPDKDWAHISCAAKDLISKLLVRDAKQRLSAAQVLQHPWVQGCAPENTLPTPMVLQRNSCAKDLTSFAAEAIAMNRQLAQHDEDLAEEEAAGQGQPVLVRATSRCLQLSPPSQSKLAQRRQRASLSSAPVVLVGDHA

For this experiment, the target named is human Mnk2a (Homo sapiens, UniProt Q9HBH9). Description: Mnk2a in vitro kinase assay (indirect fluorescence polarization). The settings on record: read-out: MNK2 IC50; GST-Mnk2a pre-activated with ERK2, 20 μM ATP, 30 μM substrate peptide. Here is the method:
Inhibitory potency of compounds against Mnk1, Mnk2a and other kinases was assessed with assays based on a format known to those skilled in the art as the indirect (competitive) fluorescence polarization. The assay detection system comprises a small fluorophore-labeled phospho-peptide (termed ligand) bound to a phospho-specific antibody. The product generated by the kinase reaction competes with the ligand for antibody binding. Based on the larger molecular volume of the bound ligand, which results in a lower rotation rate in solution, its emitted light has a higher degree of polarization than the one from the free ligand.
As a source of enzyme, human Mnk1 and human Mnk2a were expressed as GST fusion proteins in E. coli, purified to >80% homogeneity by glutathione affinity chromatography and activated in vitro with pre-activated ERK2. In brief, the open reading frames of human Mnk1 and Mnk2a were amplified from cDNA using the forward/reverse primer pairs
(utilized restriction sites underlined), respectively, and cloned into the BamHI and SalI sites of the vector pGEX-4T1 (Amersham, Sweden, cat. no. 27-4580-01). These constructs allow prokaryotic expression of Mnk1 or Mnk2a as fusion protein with a N-terminal glutathione S-transferase (GST) tag, referred to as GST-Mnk1 or GST-Mnk2a. The following expression and purification procedure was identical for GST-Mnk1 and GST-Mnk2a, referring in general to GST-Mnk, when not distinguishing between the two isoforms. Expression of GST-Mnk was in E. coli BL21 (Merck Biosciences, Germany, cat. no. 69449). Cells were grown in LB-Bouillon (Merck, Germany, cat. no. 1.10285) supplemented with 100 μg/ml ampicillin (Sigma, Germany, cat. no. A9518) at 37° C. When the culture had reached a density corresponding to an A600 of 0.8, an equal volume of ice cold LB/ampicillin was added, the culture transferred to 25° C. and induced for 4 h with 1 mM isopropyl thiogalactoside (IPTG, Roth, Germany, cat. no. 2316.4). Cells harvested by centrifugation were resuspended in 10 ml lysis buffer (50 mM tris(hydroxymethyl)aminomethane hydrochloride (Tris/HCl, Sigma, Germany, cat. no. T5941) pH 7.5, 300 mM sodium chloride (NaCl, Sigma, Germany, cat. no. S7653), 5% (w/v) glycerol (Sigma, Germany, cat. no. G5516), 3 mM DTT dithiotreitol (DTT, Sigma, Germany, cat. no. D9779)) per gram wet weight cell pellet. Lysates were prepared by disruption of cells with a sonifier and subsequent clearing by centrifugation at 38000 g for 45 min at 4° C.
The lysate was applied to a GSTPrep FF 16/10 column (Amersham, Sweden, cat. no. 17-5234-01) equilibrated with lysis buffer. Removal of unbound material was with 3 column volumes (CV) lysis buffer. Elution was with 2 CV of elution buffer (50 mM Tris/HCl pH 7.5, 300 mM NaCl, 5% (w/v) glycerol, 20 mM glutathione (Sigma, Germany, cat. no. G4251)). Peak fractions were pooled and the protein transferred into storage buffer (50 mM Tris/HCl pH 7.5, 200 mM NaCl, 0.1 mM ethylene glycol-bis(2-aminoethylether)-N,N,N′,N′-tetraacetic acid (EGTA, Aldrich, Germany, cat. no. 23, 453-2), 1 mM DTT, 10% (w/v) glycerol, 0.5 M sucrose (Sigma, Germany, cat. no. SO389) by gel filtration on a PD10 desalting column (Amersham, Sweden, cat. no. 17-0851-01). Aliquots were shock frozen in liquid nitrogen and stored at −80° C.
Activation of Mnk1 and Mnk2a was at a concentration of 2.5 μM of either purified GST-Mnk1 or GST-Mnk2a by incubation with 150 nM pre-activated NHis-ERK2 (see ERK2 assay for preparation) and 50 μM adenosine triphosphate (ATP, Sigma, cat. no. A2699) in a buffer comprising 20 mM N-(2-hydroxyethyl)piperazine-N′-(2-ethanesulfonic acid) (HEPES, Fluka, Germany, cat. no 54459)/potassium hydroxide (KOH, Roth, Germany, cat. no 6751.1) pH 7.4, 10 mM magnesium chloride (MgCl2, Sigma, Germany, cat. no. M2670), 0.25 mM DTT, 0.05% (w/v) polyoxyethylene 20 stearylether (Brij 78, Sigma, Germany, cat. no. P4019) (HMDB buffer) for 45 min at 30° C. […]
On the technique in general: Fluorescence polarisation rises when a labelled molecule tumbles more slowly, as on binding a larger partner.
As to `Cc1c(C(=O)NCC2COCCN2)sc2ncnc(Nc3ccc(F)cc3OC3CCOCC3)c12` (stereo not drawn), the IC50 (in general, the concentration at which inhibition is half-maximal) turned out to be 53 nM. For `Cc1c(C(=O)NC2CCN(C)CC2)sc2ncnc(Nc3ccc(F)cc3O[C@@H]3CCOC3)c12`, the IC50 came out at 53 nM. Turning to `Cc1c(C(=O)NC2CNC2)sc2ncnc(Nc3ccc(F)cc3OC3CCOCC3)c12`, the concentration for half-maximal inhibition (IC50) turned out to be 84 nM. `Cc1c(C(=O)NC2CCCN(C(=O)OC(C)(C)C)CC2)sc2ncnc(Nc3ccc(F)cc3O[C@@H]3CCOC3)c12` (stereo partly drawn): the IC50 worked out at 38 nM. To `Cc1c(C(=O)NCCC2CCCN2)sc2ncnc(Nc3ccc(F)cc3OC3CCOCC3)c12` (stereo not drawn) belongs 35 nM; to `Cc1c(C(=O)NCc2ccccc2)sc2ncnc(Nc3ccc(F)cc3OC3CCCNC3)c12` (stereo not drawn) [Example 27], 76 nM.

As to `Cc1c(C(=O)NC2CCCNC2)sc2ncnc(Nc3ccc(F)cc3OC3CCOCC3)c12` (stereo not drawn), the half-maximal inhibitory concentration (IC50) was determined as 12 nM. To `Cc1c(C(=O)NCC2CNC2)sc2ncnc(Nc3ccc(F)cc3OC3CCOCC3)c12` belongs 42 nM. In the case of `Cc1c(C(=O)NC2CCNC2)sc2ncnc(Nc3ccc(F)cc3OC3CCOCC3)c12` (stereo not drawn), the concentration for half-maximal inhibition (IC50) came out at 70 nM.

These data come from patent US8648068B2, “Heterocycloalkyl-containing thienopyrimidines for pharmaceutical compositions” (Boehringer Ingelheim International GmbH, priority 2010, dated 2014).
